# Ab-14 heavy chain CDR variants: yeast mating affinities

The target is the same throughout: PDVDLGDISGINAS, from the HR2 region of SARS-CoV-2 spike.

Parent scFv Ab-14: VH joined to VL by a (GGGGS)3 linker. Changes lie in the heavy chain CDRs alone.
VH: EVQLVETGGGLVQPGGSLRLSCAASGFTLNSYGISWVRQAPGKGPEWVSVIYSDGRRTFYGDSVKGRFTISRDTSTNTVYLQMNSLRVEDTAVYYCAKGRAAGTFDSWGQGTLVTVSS
VL: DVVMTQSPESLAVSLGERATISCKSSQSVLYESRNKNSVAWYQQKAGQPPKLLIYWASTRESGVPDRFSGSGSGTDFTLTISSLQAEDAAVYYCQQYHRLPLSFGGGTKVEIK

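The starting antibody came from a phage panning campaign against this peptide. In library AAYL49, one, two or three CDR residues were substituted; doubles and triples were drawn at random. The assay is AlphaSeq: two haploid yeast populations carry antibody and antigen on their surface. Binding brings cells together so that they mate, and sequencing counts the barcode pairs among the diploids. A regression on co-assayed BCL2-family reference pairs converts the normalised counts of each replicate to an apparent Kd. There are three technical replicates.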

The parent's heavy chain CDRs are GFTLNSYGIS, VIYSDGRRTFYGDSVK, GRAAGTFDS; each variant's own CDRs replace them letter for letter. This list gathers variants with a substitution at F59 (VH, numbered from residue 1). Numbers give log10(Kd / nM), so 0 is 1 nM and 3 is 1 µM. Smaller is tighter. "ND" marks a missing value. The strain was present, yet no cells mated with the target were sequenced in that replicate, which points to weak or no binding. As a blank, each scFv also met three strains without target: over library AAYL49, 15% of these pairings were detected, typically at 4.06 and seldom below 2.83. For each scFv, signals with the empty controls are counted beside the result. For reference, the parent read 0.65 as the reference entry and 4.11 (one replicate of three) as a member of this library.

With GFTLNSYGIS / VIYSDGRRTAYGDSVK / GRAAGTFDS the result was 0.59, 0.65, 0.61 (controls 0 of 9). The variant GFTWNSYAIS / VIYSDGRRTPYGDSVK / GRAAGTFDS gave ND, ND, 3.14 (controls 1 of 9). The variant GFTLNSYGIS / VIYSDGRRTEYGWSVK / GRAAGTFDS showed 2.22, 2.85, 3.26 (controls 0 of 9). With GFTLNSYGIS / VIYSDGRRTNYHDSVK / GRAAGTFDS the result was 0.80, 0.81, 1.00 (controls 1 of 9). With GFTLNSYVIS / VIYSDGRRTLYGDSVK / GRAAVTFDS the result was ND, 2.73, ND (controls 0 of 9).

For GFTLNSYGIS / VIYSSGRTTAYGDSVK / GRAAGTFDS, the assay gave ND, ND, ND (controls 3 of 9). With GFLLNSYGIS / VIYSDGRRTLYGDSNK / GRAAGTFDS the result was ND, 3.78, ND (controls 1 of 9). With GFTLNSYGIS / VIYSDGRRTIYGDSIK / GRAAGTFDS the result was 3.75, ND, ND (controls 0 of 9). The variant GFTLNSYGIS / VIYSDGRRTTYGDSVK / GRRAGTFRS showed 4.85, 3.93, 6.40 (controls 7 of 9). The variant GFTLNSYGIS / VIYSDGPRTPYGDSVK / YRAAGTFDS showed 4.86, ND, ND (controls 2 of 9).

The variant GFTLNSYGIS / LIYSDGRTTMYGDSVK / GRAAGTFDS showed ND, ND, ND (controls 1 of 9). The variant PFTLNSYGIS / VIYSDPRRTDYGDSVK / GRAAGTFDS showed 3.18, ND, ND (controls 1 of 9). The variant GFTLNSYGIS / VIYSDGRRTPYWDSVK / DRAAGTFDS gave ND, 5.27, ND (controls 3 of 9). With GKTLNSYGIS / VIYADGRRTTYGDSVK / GRAAGTFDS the result was 1.10, 1.30, 1.78 (controls 3 of 9). With GFTLNHYGIS / VIYSDGRRTGYFDSVK / GRAAGTFDS the result was 3.29, ND, ND (controls 1 of 9).

The variant GFTLNSYGIS / VIYSDGRRTQYGDSVK / GRQAGTADS gave ND, ND, ND (controls 0 of 9). The variant GFTLNSYGIS / VIYSDGRRTPYGDSIK / GRAAGTDDS gave ND, ND, ND (controls 2 of 9). The variant GFTLNSYGIS / VIYGDGRRTMYGDSVK / GRAAGTQDS gave ND, ND, ND (controls 1 of 9). For GFTLNSYGIS / VPYSDGRRTVYGDSVK / GRADGTFDS, the assay gave ND, ND, ND (controls 0 of 9). The variant GFTLNWYGIS / VIYSDGCRTDYGDSVK / GRAAGTFDS gave 3.75, 4.10, ND (controls 3 of 9).

For GFTLNSYKIS / VIYSDGRRTIYGDSVK / GRAAGTFDS, the assay gave ND, ND, ND (controls 0 of 9). With GFTLNSYGIS / VIYKDGRRTDYGDSVK / GRAADTFDS the result was ND, ND, ND (controls 2 of 9). For GFTLNSYGIS / IGYSDGRRTLYGDSVK / GRAAGTFDS, the assay gave ND, ND, ND (controls 3 of 9). The variant GFFLNSYGIS / VMYSDGRRTQYGDSVK / GRAAGTFDS gave ND, 3.78, 4.97 (controls 3 of 9). The variant GFTLMSYGIS / VIYSDGRRTAYIDSVK / GRAAGTFDS gave 0.22, 0.48, 0.25 (controls 2 of 9).

The variant FFTLPSYGIS / VIYSDGRRTHYGDSVK / GRAAGTFDS showed ND, ND, ND (controls 0 of 9). The variant GFTLNSYGIS / VIYSDHRRTRYGDSVK / GRAAGTFDA gave ND, ND, ND (controls 1 of 9). With GFTLNSYGIS / TIHSDGRRTHYGDSVK / GRAAGTFDS the result was ND, ND, ND (controls 0 of 9). With GFTLNSYMIS / KIYSDGRRTKYGDSVK / GRAAGTFDS the result was ND, ND, ND (controls 2 of 9). The variant GFTLNDYGIS / VIYSDGRRELYGDSVK / GRAAGTFDS gave 2.95, ND, ND (controls 2 of 9).

The variant GFTLNSYGIS / VIYFDGRRTMYGDSVK / GRAAGCFDS showed 3.35, 4.67, 4.69 (controls 3 of 9). With GFTLNSYGIS / QIYSDGRRTNYGDSVK / GRAAGTFDS the result was ND, ND, ND (controls 0 of 9). The variant GFTLNSYGIS / VIISDGRRTIYGDSVK / GRHAGTFDS gave ND, ND, ND (controls 2 of 9). The variant GFTDMSYGIS / VIYSDGRRTNYGDSVK / GRAAGTFDS gave ND, 3.10, ND (controls 3 of 9). With GFTLNSYGIS / VIYSDGRRTCYGDSVK / GRAAGTFDS the result was 2.13, 3.00, 2.45 (controls 2 of 9).

The variant GFTLNSYGIS / VIYSDGRRTQMGDSVK / GRAASTFDS showed ND, ND, ND (controls 1 of 9). The variant GFTLNSYGIS / VIYSDGRRTAYGCSVK / GRQAGTFDS gave 1.27, 1.33, 1.46 (controls 2 of 9). The variant GFTLNSYGIS / VIYGDGRRTRYGDSVK / GRAAVTFDS gave ND, ND, ND (controls 0 of 9). For GFTLNSYGIS / VIYWDGRRTDYGDSVK / GRAYGTFDS, the assay gave 2.49, 1.98, 2.34 (controls 2 of 9). The variant GFTLNSYGIS / VIYSDGRRTAYGDSVP / GRAAGPFDS showed 4.01, 3.52, 3.65 (controls 3 of 9).

The variant GFTLPSYGIS / VIYSDGRRTEYGDSVK / GRAAGTFDS showed 2.07, 2.21, 2.12 (controls 2 of 9). The variant GFTLNSYGIS / QIYSDGRRTEYGDSVK / GRAAGTFDS gave ND, 4.32, 3.94 (controls 3 of 9). For GFTLNSYGIS / VIYSDGRPTQYGDSVK / GRAAGTFDS, the assay gave ND, ND, ND (controls 1 of 9). The variant GFTLNSYGIS / VEYSDGRQTTYGDSVK / GRAAGTFDS showed ND, ND, ND (controls 0 of 9). For GFTLNSYGIS / VIYSDGRRTHYGDSVK / GRAQLTFDS, the assay gave 1.21, 1.41, 1.45 (controls 3 of 9).

The variant WFTLNSYGIS / VIYSDGRRTRYGDSVK / GRATGTFDS gave ND, ND, ND (controls 1 of 9).

The 7 strongest on average among those seen in every replicate, once more:

Variant GFTLMSYGIS / VIYSDGRRTAYIDSVK / GRAAGTFDS gave 0.22, 0.48, 0.25 (controls 2 of 9).
Variant GFTLNSYGIS / VIYSDGRRTAYGDSVK / GRAAGTFDS gave 0.59, 0.65, 0.61 (controls 0 of 9).
Variant GFTLNSYGIS / VIYSDGRRTNYHDSVK / GRAAGTFDS gave 0.80, 0.81, 1.00 (controls 1 of 9).
Variant GFTLNSYGIS / VIYSDGRRTAYGCSVK / GRQAGTFDS gave 1.27, 1.33, 1.46 (controls 2 of 9).
Variant GFTLNSYGIS / VIYSDGRRTHYGDSVK / GRAQLTFDS gave 1.21, 1.41, 1.45 (controls 3 of 9).
Variant GKTLNSYGIS / VIYADGRRTTYGDSVK / GRAAGTFDS gave 1.10, 1.30, 1.78 (controls 3 of 9).
Variant GFTLPSYGIS / VIYSDGRRTEYGDSVK / GRAAGTFDS gave 2.07, 2.21, 2.12 (controls 2 of 9).

Source: Engelhart et al. 2022 (doi:10.1038/s41597-022-01779-4), MIT Lincoln Laboratory and A-Alpha Bio; data file from the FLAb repository.